Structures are written as SMILES.

Protein sequences, listed by entry. Tags and fused reporters are not part of them.
UniProt P14416, whole entry: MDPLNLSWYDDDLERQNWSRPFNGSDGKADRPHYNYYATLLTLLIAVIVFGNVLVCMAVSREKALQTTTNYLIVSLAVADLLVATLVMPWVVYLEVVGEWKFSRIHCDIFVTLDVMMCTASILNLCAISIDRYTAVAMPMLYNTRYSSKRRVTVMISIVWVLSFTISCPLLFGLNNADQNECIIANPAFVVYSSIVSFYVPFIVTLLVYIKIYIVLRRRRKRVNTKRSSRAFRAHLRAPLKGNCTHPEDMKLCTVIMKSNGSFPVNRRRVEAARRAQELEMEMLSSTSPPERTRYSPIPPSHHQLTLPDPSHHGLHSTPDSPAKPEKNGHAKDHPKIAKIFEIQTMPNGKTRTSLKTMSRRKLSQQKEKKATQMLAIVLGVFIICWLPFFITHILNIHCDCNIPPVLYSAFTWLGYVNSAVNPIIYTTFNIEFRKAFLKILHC

For the test, the target named is T1, cloned dopamine human D2Long receptor (Homo sapiens, UniProt P14416).
T1 construct: purchased Research Biochemicals International (Natick, Mass.); host or cells: Sf9 cells or CHO cells
Nature of the test: Competitive binding at cloned dopamine D2 receptor ([3H]raclopride). The following applies: D2short or D2 long; read-out: Kd of radioligand at cloned dopamine D2 receptors.

Broadly, the Kd is the concentration at which binding is half-saturated. As to `CCN1CCC[C@H]1CNC(=O)c1c(O)c(Cl)cc(Cl)c1OC` (racemic) [[^3H]raclopride], the Kd came out at 1.9 nM.

For the origin of these results see patent US20100004289A1, “SUBSTITUTED BUTYROPHENONE DERIVATIVES” (priority 2005, published 2010).
